Test results published in US8309097 (VERENIGING VOOR CHRISTELIJK WETENSCHAPPELIJK ONDERWIJS, dated 2012).

Target: T1, ICAM-3 coated on fluorescent beads (UniProt P32942 30-485)
T1 sequence: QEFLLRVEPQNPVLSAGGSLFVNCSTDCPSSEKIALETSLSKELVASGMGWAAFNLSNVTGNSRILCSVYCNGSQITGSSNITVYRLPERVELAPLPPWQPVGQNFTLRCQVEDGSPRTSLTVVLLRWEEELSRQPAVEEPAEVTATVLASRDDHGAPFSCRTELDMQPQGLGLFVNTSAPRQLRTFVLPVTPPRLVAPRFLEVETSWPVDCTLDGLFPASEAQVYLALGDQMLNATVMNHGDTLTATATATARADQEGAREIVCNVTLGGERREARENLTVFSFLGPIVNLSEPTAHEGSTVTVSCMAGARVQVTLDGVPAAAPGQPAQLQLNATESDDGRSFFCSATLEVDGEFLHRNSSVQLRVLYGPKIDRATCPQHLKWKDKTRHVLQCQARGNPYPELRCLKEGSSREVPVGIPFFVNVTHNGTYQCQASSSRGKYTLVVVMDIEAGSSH
Experiment: fluorescent bead adhesion assay, K562 transfectants

B1: DC-SIGN V351G mutant expressed by K562 cells (receptor)
chain: MSDSKEPRLQQLGLLEEEQLRGLGFRQTRGYKSLAGCLGHGPLVLQLLSFTLLAGLLVQVSKVPSSISQEQSRQDAIYQNLTQLKAAVGELSEKSKLQEIYQELTQLKAAVGELPEKSKLQEIYQELTRLKAAVGELPEKSKLQEIYQELTWLKAAVGELPEKSKMQEIYQELTRLKAAVGELPEKSKQQEIYQELTRLKAAVGELPEKSKQQEIYQELTRLKAAVGELPEKSKQQEIYQELTQLKAAVERLCHPCPWEWTFFQGNCYFMSNSQRNWHDSITACKEVGAQLVVIKSAEEQNFLQLQSSRSNRFTWMGLSDLNQEGTWQWVDGSPLLPSFKQYWNRGEPNNGGEEDCAEFSGNGWNDDKCNLAKFWICKKSAASCSRDEEQFLSPAPATPNPPPA
- binding result: no binding
